{"source": "patent US8933129B2", "about": "“Compounds and methods for modulating activity of calcium release channels” (State of Oregon by and through the State Board of Higher …, priority 2009, dated 2015)", "molecular_target": "RyR2 (cardiac receptor) (Homo sapiens, UniProt Q92736)", "details": "for open probability Po: control Po=0.83", "note": "Read-outs that look alike come from different tables or passages of the source.", "data": [{"smiles": "COc1ccc2c(c1)CN(C(=O)CCN1CCC(Cc3ccccc3)CC1)CCS2", "note": "[K201]", "values": [{"measurement": "decrease in Po", "setting": "0.5 μM K201, Po to state 1", "value": "about 50%"}, {"measurement": "open probability Po", "setting": "0.5 μM K201, FIG. 10B", "value": 0.42}, {"measurement": "open probability Po", "setting": "1.0 μM K201, FIG. 10C", "value": 0.014}, {"measurement": "sensitivity of RyR2 to inhibition relative to RyR1", "setting": "RyR2 vs RyR1", "value": "~8", "unit": "fold"}]}]}
